Measurements: publication PMC7948456, “Kinetics of cytochrome P450 3A4 inhibition by heterocyclic drugs defines a general sequential multistep binding process” (The Journal of Biological Chemistry, 2020)

Sequences of proteins named here, by UniProt entry; tags and fusion partners are left off. Residues count along the entry.
UniProt P08684, 13-503: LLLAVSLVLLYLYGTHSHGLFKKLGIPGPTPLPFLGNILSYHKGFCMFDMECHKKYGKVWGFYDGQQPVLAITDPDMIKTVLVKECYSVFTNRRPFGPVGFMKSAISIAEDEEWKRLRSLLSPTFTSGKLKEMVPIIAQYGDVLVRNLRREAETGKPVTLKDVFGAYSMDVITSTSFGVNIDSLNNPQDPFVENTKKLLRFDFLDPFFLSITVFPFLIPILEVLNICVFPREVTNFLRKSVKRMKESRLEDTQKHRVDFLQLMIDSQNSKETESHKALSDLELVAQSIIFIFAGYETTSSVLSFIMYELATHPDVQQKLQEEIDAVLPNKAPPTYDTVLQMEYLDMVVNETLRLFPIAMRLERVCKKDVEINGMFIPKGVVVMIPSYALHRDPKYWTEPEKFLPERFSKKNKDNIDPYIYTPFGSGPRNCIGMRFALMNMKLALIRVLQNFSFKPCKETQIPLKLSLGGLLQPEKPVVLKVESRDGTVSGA

Key:
P450 3A4 [1] = molecular target: T1, P450 3A4 (Homo sapiens, UniProt P08684); conditions: KinTek Explorer fit
P450 3A4 [2] = molecular target: T1, P450 3A4; assay: Inhibitor-binding kinetics (stopped-flow absorbance, SVD analysis); conditions: ligand 2 μM final, P450 3A4 2 μM

## CCC(C)n1ncn(-c2ccc(N3CCN(c4ccc(OCC5COC(Cn6cncn6)(c6ccc(Cl)cc6Cl)O5)cc4)CC3)cc2)c1=O (stereo not shown)
P450 3A4 [1]; E + I ⇄ EI off-rate
  k−3 (model): 40 s⁻¹
P450 3A4 [1]; EI → E′I
  k4 (model): 0.3 s⁻¹
P450 3A4 [1]; E′I → EI
  k−4 (model): 0.07 s⁻¹
P450 3A4 [2]
  kobs, initial rate of binding (ΔA390 − A425): 195 s⁻¹
